Assay results taken from patent US7041818B2, “DDS compound and method for measurement thereof” (priority 1998, dated 2006).

Conditions: 5 mg/kg (as DX-8951) intravenously, livers at 0.5-24 hours; compared to control DDS compound (D)

For “Galactose-modified CM-dextran Polyalcohol-Gly-Gly-Phe-Gly-DX-8951 [galactose-modified DDS compound]”, the liver accumulation was “higher liver accumulation compared to the control DDS compound”.
